Measured values from PMC5749160, “Disruption of an RNA-binding hinge region abolishes LHP1-mediated epigenetic repression” (Genes & Development, 2017).

T1: GST-LHP1 (LIKE HETEROCHROMATIN PROTEIN 1, full length, glutathione-S-transferase fusion) (Arabidopsis, UniProt Q946J8 1-445)
T1 construct: LIKE HETEROCHROMATIN PROTEIN 1 (LHP1), Arabidopsis, full length, expressed from pGEX-LHP1; source: E. coli BL21 Rosetta (DE3) pLysS, purified (glutathione-sepharose 4B)
T1 sequence (looked up): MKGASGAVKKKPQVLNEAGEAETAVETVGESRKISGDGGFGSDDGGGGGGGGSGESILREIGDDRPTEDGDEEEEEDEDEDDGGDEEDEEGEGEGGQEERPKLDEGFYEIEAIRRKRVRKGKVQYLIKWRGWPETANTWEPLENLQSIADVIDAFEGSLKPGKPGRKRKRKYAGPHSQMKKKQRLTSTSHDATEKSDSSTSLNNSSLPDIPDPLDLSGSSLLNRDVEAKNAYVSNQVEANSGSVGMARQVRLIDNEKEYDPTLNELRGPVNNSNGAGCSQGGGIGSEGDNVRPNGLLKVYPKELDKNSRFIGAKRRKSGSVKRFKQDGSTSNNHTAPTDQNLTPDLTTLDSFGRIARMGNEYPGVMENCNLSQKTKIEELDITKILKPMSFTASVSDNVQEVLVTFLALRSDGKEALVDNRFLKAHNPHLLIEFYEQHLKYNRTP


Biological target: T1, GST-LHP1 (LIKE HETEROCHROMATIN PROTEIN …)
Test: pull-down; biotinylated histone peptide (0.5 ug) held on streptavidin Dynabeads; GST fusion protein 5 uM in 50 mM Tris pH 7.5, 150 mM NaCl, 0.1% NP-40, 1 mM DTT, 15 min at 4 C; bound protein detected by anti-GST immunoblot
Conditions: both partners purified

| binding result | Binder |
| --- | --- |
| binds | histone H3 […] peptide with K9me3, biotinylated (trimethyl-lysine at K9 (K9me3); biotin at the C-terminus (-GGK-Biotin), histone H3 […]; linker before the biotin; also called H3K9me3; H3K9me3-modified histone peptide; source: synthetic peptide, bought: Anaspec) peptide: not shown |
| binds | histone H3 […] peptide with K9me2, biotinylated (dimethyl-lysine at K9 (K9me2); biotin at the C-terminus (-GGK-Biotin), histone H3 […]; linker before the biotin; also called H3K9me2; H3K9me2-modified histone peptide; source: synthetic peptide, bought: Anaspec) peptide: not shown |
